Assay results reported in patent publication EP0637237B1, “CALCIUM RECEPTOR-ACTIVE MOLECULES” (BRIGHAM AND WOMEN'S HOSPITAL, INC., priority 1993, dated 1994).

The chains behind the UniProt entries cited, without tags or fusion partners. Residues count along the entry.
UniProt P35384, 20-1085 limits assumed: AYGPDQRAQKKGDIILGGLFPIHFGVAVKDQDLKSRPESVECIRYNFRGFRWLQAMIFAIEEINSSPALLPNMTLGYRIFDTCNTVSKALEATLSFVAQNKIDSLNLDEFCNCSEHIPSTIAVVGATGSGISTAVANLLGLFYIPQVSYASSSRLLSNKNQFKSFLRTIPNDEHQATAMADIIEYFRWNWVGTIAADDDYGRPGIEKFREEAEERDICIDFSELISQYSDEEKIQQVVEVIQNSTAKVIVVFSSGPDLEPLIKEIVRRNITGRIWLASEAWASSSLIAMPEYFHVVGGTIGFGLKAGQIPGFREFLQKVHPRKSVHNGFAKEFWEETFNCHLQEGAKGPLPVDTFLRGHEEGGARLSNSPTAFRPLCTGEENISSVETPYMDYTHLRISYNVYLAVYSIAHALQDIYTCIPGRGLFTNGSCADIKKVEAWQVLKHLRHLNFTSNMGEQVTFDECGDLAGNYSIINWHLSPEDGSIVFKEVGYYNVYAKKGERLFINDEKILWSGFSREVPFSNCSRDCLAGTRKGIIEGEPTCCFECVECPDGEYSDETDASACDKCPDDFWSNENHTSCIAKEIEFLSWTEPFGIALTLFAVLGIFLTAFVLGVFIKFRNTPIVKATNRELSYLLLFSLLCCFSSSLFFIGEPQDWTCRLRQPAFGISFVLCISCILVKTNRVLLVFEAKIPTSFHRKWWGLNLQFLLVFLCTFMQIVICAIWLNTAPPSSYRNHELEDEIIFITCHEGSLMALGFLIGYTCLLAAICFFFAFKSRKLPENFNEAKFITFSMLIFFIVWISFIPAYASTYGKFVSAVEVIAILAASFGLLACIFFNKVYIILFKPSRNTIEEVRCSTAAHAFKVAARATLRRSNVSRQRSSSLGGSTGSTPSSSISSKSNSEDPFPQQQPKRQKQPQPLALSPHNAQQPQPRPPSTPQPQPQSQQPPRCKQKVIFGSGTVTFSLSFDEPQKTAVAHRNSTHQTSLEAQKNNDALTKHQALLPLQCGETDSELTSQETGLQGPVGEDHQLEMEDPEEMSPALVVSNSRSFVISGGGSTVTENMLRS

Biological target: parathyroid cell Ca^2+ receptor (Bos taurus, UniProt P35384)
Test: Mobilization of intracellular Ca2+ ([Ca2+]i, fura-2) in bovine parathyroid cells
Type: cell-based

| concentration at which the increase in [Ca2+]i evoked by extracellular Ca2+ is abolished | SMILES | [Ca2+]i response (fura-2-loaded bovine parathyroid cells, 0.5 mM extracellular Ca2+) | effect on the increase in [Ca2+]i elicited by extracellular Ca2+ (NPS 021 200 µM, [Ca2+] increased to 2 mM, Fig. 37) |
| --- | --- | --- | --- |
| – | CCCCCCCCCC1CC(=O)NCCCN(C)CCCCN(C)CCCN1C (stereo not drawn) | rapid and transient increase in [Ca^2+]i | – |
| around 500 àM | NCCCCCCCCCCCCNC(=O)Cc1ccc(O)cc1O | – | inhibited the increase in [Ca^2+]i elicited by extracellular Ca^2+ |
